Values of other authors, collected in patent publication US20080199485A1 (priority 2007, published 2008).

Conditions: cited from earlier work

Substance: 5′-TCCATGACGTTCCTGAATAAT-3′
- half-life in tissues: 48 h
